Laboratory results as given in PubChem BioAssay AID2288 (National Center for Advancing Translational Sciences (NCATS), 2010).
Only a part is listed here, and it is no random draw. Some structures show a salt or complex split into parts, the way the source records it. The source made the active and inactive calls. The call rests on the fitted dose curve; in most records, active means well fitted curve in the direction sought with a large enough effect; inconclusive means small, poorly fitted or top-dose-only effect, or another doubt; inactive means no such curve, though single readings can be large or run the other way.

Experiment: qHTS Assay for Modulators of miRNAs and/orActivators of miR-21;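 further: % of control where 0% means no effect; miR-21 action dims this reporter so a rising signal means less miR-21 action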
Conditions: HeLa miR-21 FLuc reporter, luciferase, 48 h; at 38.3 µM (top of the series)

Row | Structure (SMILES) | activity change, positive = activation
1 | CCOC(=O)C(CC)C1=NC(C)(C)Cc2ccccc21.O=[N+]([O-])c1cc([N+](=O)[O-])c(O)c([N+](=O)[O-])c1 (configuration not stated) | inactive: -3.23%
2 | CC(C)(C)OC(=O)N1CCC(N(C(=O)c2ccccc2)c2ccc(Cl)cc2)CC1 | inactive: 18.9%
3 | O=C(NCC1(N2CCOCC2)CCCCC1)c1ccc([N+](=O)[O-])cc1 | inactive: -2.09%
4 | N#Cc1ccc(C(=O)NCC2(N3CCCCC3)CCCCC2)cc1 | inactive: 4.62%
5 | O=C(NCC1(N2CCOCC2)CCCCC1)c1ccccc1[N+](=O)[O-] | inactive: -6.08%
6 | c1ccc(CN2CCC(Nc3ccccc3)CC2)cc1 | inactive: -1.47%
7 | CCCN1CCC(Nc2cc(OC)cc(OC)c2)CC1 | inactive: -1.03%
8 | O=C(NCC1(N2CCOCC2)CCCCC1)c1ccccc1 | inactive: -2.85%
9 | CN(C)C1(CNC(=O)c2cccc(C#N)c2)CCCCC1 | inactive: -3.49%
10 | COc1ccc(C(=O)NCC2(N3CCOCC3)CCCCC2)cc1OC | inactive: -3.84%
11 | O=C(OC1CN2CCC1CC2)C1c2ccccc2C=Cc2ccccc21 (configuration not stated) | inactive: 3.4%
12 | O=C(O)c1cccc(Nc2c([N+](=O)[O-])cc([N+](=O)[O-])cc2[N+](=O)[O-])c1 | inactive: 1.94%
13 | N/C(=N\O)c1c(N)no[n+]1[O-] | inactive: -1.7%
14 | CCOC(=O)N1CCC(Nc2ccc(C)cc2)CC1 | inactive: -1.7%
15 | CCCOc1ccc(C(=O)NCC2(N(C)C)CCCCC2)cc1 | inactive: -2.64%
16 | CC(C)(C)OC(=O)N1CCC(Nc2ccccc2)CC1 | inactive: 0.672%
17 | O=C(O)C1(Nc2ccccc2)CCN(Cc2ccccc2)CC1 | inactive: -0.709%
18 | CCOc1ncccc1C(=O)NCC1(N2CCOCC2)CCCCC1 | inactive: -2.53%
19 | CN1CCC(Nc2ccc(F)c(Cl)c2)CC1 | inactive: -0.344%
20 | CCCOc1ccc(C)cc1CN(CCCl)CCCl | inactive: 0.221%
21 | CN1CCC(Nc2ccc(Cl)cc2)CC1 | inactive: -3.08%
22 | CCC(CO)(C(=O)OC1CN2CCC1CC2)c1ccccc1 (configuration not stated) | inactive: 0.0138%
23 | COc1cc(C(=O)NCC2(N3CCOCC3)CCCCC2)cc(OC)c1OC | inactive: 5.03%
24 | COc1cc(OC)cc(C(=O)NCC2(N3CCOCC3)CCCCC2)c1 | inactive: -2.24%

Row | Structure (SMILES) | activity change, positive = activation
25 | COc1cccc(C(=O)N(c2cc(C)cc(C)c2)C2CCN(C(=O)OC(C)(C)C)CC2)c1 | inactive: 0.0961%
26 | Fc1ccccc1NC1CCN(Cc2ccccc2)CC1 | inactive: -3.46%
27 | COc1cc(OC)cc(C(=O)NCC2(N3CCCCC3)CCCCC2)c1 | inactive: 1.31%
28 | CN(C)C1(CNC(=O)c2ccc(C(C)(C)C)cc2)CCCCC1 | inactive: -10.4%
29 | CC(C)(C)c1ccc(C(=O)NCC2(N3CCOCC3)CCCCC2)cc1 | inactive: 2.3%
30 | CN(C)c1ccc(C(=O)NCC2(N3CCCCC3)CCCCC2)cc1 | inactive: -0.742%
31 | Cc1ccccc1C(=O)NCC1(N(C)C)CCCCC1 | inactive: -1.49%
32 | CCN1CCC(Nc2cccc(F)c2)CC1 | inactive: -12%
33 | O=C(NCC1(N2CCCCC2)CCCCC1)c1ccc(F)cc1 | inactive: 0.67%
34 | COc1ccc(NC2CCN(CCc3ccccc3)CC2)c(OC)c1 | inactive: -7.12%
35 | CCOC(=O)N1CCC(Nc2ccc(F)cc2)CC1 | inactive: -0.655%
36 | COc1ccccc1C(=O)NCC1(N2CCOCC2)CCCCC1 | inactive: -5.98%
37 | CCOc1ccc(C)cc1CN(CCCl)CCCl | inactive: -2.72%
38 | O=C(NCC1(N2CCOCC2)CCCCC1)c1ccc(Cl)cc1 | inactive: 26.2%
39 | CCOC(=O)N1CCC(Nc2cccc(C)c2)CC1 | inactive: -2.45%
40 | COc1cc(C(=O)NCC2(N(C)C)CCCCC2)ccc1OC(F)F | inactive: -4.32%
41 | Cc1ccc(OCC(C)C)c(CN(CCCl)CCCl)c1 | inactive: 0.387%
42 | CSc1ccccc1C(=O)NCC1(N2CCCCC2)CCCCC1 | inactive: -0.244%
43 | O=C(NCC1(N2CCCCC2)CCCCC1)c1ccc(=O)[nH]c1 | inactive: 3.58%
44 | COc1ccc(C(=O)NCC2(N3CCCCC3)CCCCC2)cc1 | inactive: -2.39%
45 | COc1ccc(C(=O)NCC2(N3CCCCC3)CCCCC2)c(OC)c1OC | inactive: 14.3%
46 | CC(C)(C)OC(=O)N1CCC(N(C(=O)c2ccccc2)c2ccc(F)cc2)CC1 | inactive: 0.0178%
47 | CCOC(=O)N1CCC(Nc2ccc(OC)cc2)CC1 | inactive: 4.89%
48 | N#CC1(Nc2ccccc2)CCN(Cc2ccccc2)CC1 | inactive: 1.54%

Row | Structure (SMILES) | activity change, positive = activation
49 | O=C(OC1CN2CCC1CC2)C1c2ccccc2Oc2ccccc21 (configuration not stated) | inactive: -4.91%
50 | O=C(NCC1(N2CCOCC2)CCCCC1)c1cc2ccccc2o1 | inactive: -2.25%
51 | Cc1cc(C)cc(N(C(=O)c2ccccc2)C2CCN(C(=O)OC(C)(C)C)CC2)c1 | inactive: -0.0503%
52 | COc1cc(OC)c(C(=O)NCC2(N(C)C)CCCCC2)cc1OC | inactive: 0.343%
53 | COc1ccc(CN(CCCl)CCCl)cc1Cl | inactive: -0.298%
54 | O=[N+]([O-])c1cc([N+](=O)[O-])c(OC2CCCCC2O)c([N+](=O)[O-])c1 (configuration not stated) | inactive: -1.37%
55 | CN(C)c1cccc(C(=O)NCC2(N3CCCCC3)CCCCC2)c1 | inactive: 1.86%
56 | CC(C)c1ccc(NC2CCN(C(=O)OC(C)(C)C)CC2)cc1 | inactive: -29%
57 | CCCCOc1ccccc1C(=O)NCC1(N2CCOCC2)CCCCC1 | inactive: 9.81%
58 | O=C(NCC1(N2CCOCC2)CCCCC1)c1ccccc1Br | inactive: 3.51%
59 | CCCOc1ccc(C(=O)NCC2(N(C)C)CCCCC2)cc1OC | inactive: -5.91%
60 | COc1ccc2c(c1O)-c1c(O)c(OC)cc3c1[C@H](C2)[N+](C)(C)CC3.O=[N+]([O-])c1cc([N+](=O)[O-])c([O-])c([N+](=O)[O-])c1[O-] | inactive: 3.33%
61 | O=C(OC1CN2CCC1CC2)c1ccc([N+](=O)[O-])cc1 (configuration not stated) | inactive: -0.862%
62 | O=C(NCC1(N2CCCCC2)CCCCC1)c1cccc([N+](=O)[O-])c1 | inactive: 1.02%
63 | CCOc1ccc(C(=O)NCC2(N3CCOCC3)CCCCC2)cc1 | inactive: -3.23%
64 | CCN1CCC(Nc2ccc(Cl)cc2)CC1 | inactive: -18.7%
65 | N#CC1(Nc2ccccc2)CCN(CCc2ccccc2)CC1 | inactive: -15.5%
66 | O=C(NCC1(N2CCCCC2)CCCCC1)c1ccc(OC(F)F)cc1 | inactive: -0.483%
67 | CN1CCN(CCOC(=O)C(O)(c2ccccc2)c2ccccc2)CC1 | inactive: -1.73%
68 | COc1ccc(NC2CCN(C(=O)OC(C)(C)C)CC2)cc1 | inactive: -9.11%
69 | COc1cc(C(=O)NCC2(N3CCCCC3)CCCCC2)ccc1OC(F)F | inactive: 0.84%
70 | O=C(NCC1(N2CCOCC2)CCCCC1)c1cc(=O)[nH]c2ccccc12 | inactive: 7.02%
71 | CCCOc1cccc(C(=O)NCC2(N3CCOCC3)CCCCC2)c1 | inactive: 1.9%
72 | O=C(NCC1(N2CCCCC2)CCCCC1)c1cccc(C(F)(F)F)c1 | inactive: 1.16%
